The source of these data is patent US20250221431A1, “METHOD FOR FEEDING BLACK SOLDIER FLY LARVAE WITH SELENIUM-RICH BACTERIA SOLUTION” (priority 2024, published 2025).

This series deals with black soldier fly larvae. Particulars: Example 2, chicken feed, 4-day-old larvae, selenium content added 100.00 mg/kg. How it is done:
Step 3, 4-day-old black soldier fly larvae were selected to be fed; the selenium-rich bacteria solution was added to chicken feed to enable the chicken feed to have a total selenium content of 100, 200, 300 mg/kg (wet weight), respectively; a moisture content of the chicken feed was controlled to 60%, then the black soldier fly larvae were fed with the chicken feed at a ratio of dry chicken feed to larva being 116 g per 150 larvae (the ratio of dry feed to larva was 0.77) in conditions of 28° C.-30° C. feeding temperature and 60%-70% air humidity level, and feeding was terminated at the end of the fifth instar of the larvae.
The effects of the selenium-rich bacteria solution on breeding of the selenium-rich black soldier flies were determined according to the indicators, i.e. growth performance of the larvae (survival rate, larva weight), bioconversion efficiency, and selenium content in the larva.
After the feeding was terminated, the obtained larvae were screened, washed, wiped dry and weighed. The survival rate was calculated according to the number of live larvae. The larvae were subjected to starvation for 1 day, then dried and weighed. The residual feed was also dried and weighed. Thereby, bioconversion efficiency was calculated according to the following: bioconversion efficiency=dry weight of the larvae/(dry weight of the added feed−dry weight of the residual feed)×100%. […]

For `O=[Se](O)O` [sodium selenite], the Survival rate amounted to 94.77 ± 0.51%.
